Where a name gives a salt, the structure may show the parent alone.

Chains of the proteins cited; added tags and fusions are not shown. A line that says so, or that is headed by a name, gives the form on record, which may keep a tag or linker.
UniProt Q15858, other isoform, or with tags, fused parts or gaps: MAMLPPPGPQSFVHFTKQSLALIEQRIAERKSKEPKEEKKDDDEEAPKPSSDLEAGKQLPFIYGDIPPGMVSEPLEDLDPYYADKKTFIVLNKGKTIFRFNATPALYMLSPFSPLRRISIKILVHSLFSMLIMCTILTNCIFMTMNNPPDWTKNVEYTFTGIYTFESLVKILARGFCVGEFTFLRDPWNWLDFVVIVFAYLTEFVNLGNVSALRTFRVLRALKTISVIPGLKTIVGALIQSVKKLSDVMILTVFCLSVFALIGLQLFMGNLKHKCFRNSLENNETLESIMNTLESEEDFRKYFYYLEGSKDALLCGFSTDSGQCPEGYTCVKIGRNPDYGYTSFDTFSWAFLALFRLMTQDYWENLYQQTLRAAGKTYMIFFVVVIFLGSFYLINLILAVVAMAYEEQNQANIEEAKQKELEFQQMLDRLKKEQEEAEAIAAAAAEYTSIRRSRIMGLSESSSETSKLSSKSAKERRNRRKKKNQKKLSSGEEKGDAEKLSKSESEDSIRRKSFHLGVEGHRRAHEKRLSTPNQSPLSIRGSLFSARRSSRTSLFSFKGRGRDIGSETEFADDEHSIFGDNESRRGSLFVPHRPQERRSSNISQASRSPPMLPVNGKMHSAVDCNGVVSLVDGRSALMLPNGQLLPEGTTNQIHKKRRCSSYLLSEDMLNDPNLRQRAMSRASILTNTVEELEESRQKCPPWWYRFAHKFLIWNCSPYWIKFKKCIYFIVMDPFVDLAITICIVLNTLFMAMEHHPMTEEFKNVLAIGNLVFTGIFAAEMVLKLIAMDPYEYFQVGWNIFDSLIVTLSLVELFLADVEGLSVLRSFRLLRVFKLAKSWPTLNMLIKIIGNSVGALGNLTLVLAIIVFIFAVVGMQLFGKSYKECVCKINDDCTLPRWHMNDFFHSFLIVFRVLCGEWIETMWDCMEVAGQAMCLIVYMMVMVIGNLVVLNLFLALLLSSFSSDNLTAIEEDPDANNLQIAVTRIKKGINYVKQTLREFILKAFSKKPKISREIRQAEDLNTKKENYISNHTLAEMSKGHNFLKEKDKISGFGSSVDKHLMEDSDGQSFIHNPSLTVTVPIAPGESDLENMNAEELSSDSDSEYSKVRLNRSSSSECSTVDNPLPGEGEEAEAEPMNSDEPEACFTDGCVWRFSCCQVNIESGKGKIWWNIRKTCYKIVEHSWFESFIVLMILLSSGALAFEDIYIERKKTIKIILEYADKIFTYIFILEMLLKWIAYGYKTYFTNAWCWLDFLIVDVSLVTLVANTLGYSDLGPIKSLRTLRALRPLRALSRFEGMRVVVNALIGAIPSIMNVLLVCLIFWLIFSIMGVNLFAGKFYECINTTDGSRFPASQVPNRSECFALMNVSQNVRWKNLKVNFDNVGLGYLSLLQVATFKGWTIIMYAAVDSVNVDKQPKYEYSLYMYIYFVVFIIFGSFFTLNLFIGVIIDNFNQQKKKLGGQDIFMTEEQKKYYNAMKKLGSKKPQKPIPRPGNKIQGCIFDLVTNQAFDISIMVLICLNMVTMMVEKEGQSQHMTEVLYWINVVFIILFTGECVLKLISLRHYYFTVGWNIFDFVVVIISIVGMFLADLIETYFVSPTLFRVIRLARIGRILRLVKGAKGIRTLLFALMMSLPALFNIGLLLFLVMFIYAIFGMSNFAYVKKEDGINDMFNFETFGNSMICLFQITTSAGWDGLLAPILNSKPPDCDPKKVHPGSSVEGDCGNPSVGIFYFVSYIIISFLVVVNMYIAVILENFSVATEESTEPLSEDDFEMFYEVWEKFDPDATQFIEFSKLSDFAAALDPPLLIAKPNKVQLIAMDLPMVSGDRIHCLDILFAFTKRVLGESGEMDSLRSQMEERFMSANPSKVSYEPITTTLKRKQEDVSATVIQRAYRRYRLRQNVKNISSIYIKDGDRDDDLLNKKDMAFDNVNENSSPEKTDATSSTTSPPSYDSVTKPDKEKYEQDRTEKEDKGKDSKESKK

The assay concerns the target hNav1.7 (Homo sapiens (Human), UniProt Q15858). Briefly: Tritiated sulfonamide competitive binding to membranes from cells expressing hNav1.7 and the β1 subunit.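 Note: Filter-bound radioactivity counted by liquid scintillation, nonspecific binding defined with excess unlabelled ligand, IC50 fitted to percent inhibition of specific binding.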
In the case of `O=C(NS(=O)(=O)N1CCC1)c1cc(C2CC2)c(O[C@@H]2CCCN(c3ccccc3)C2)cc1F` [Example 41, (R)—N-(azetidin-1-ylsulfonyl)-5-cyclopropyl-2-fluoro-4-((1-phenylpiperidin-3-yl)oxy)benzamide], the IC50 came out at 13.4 nM.

With `COCC1(c2ccc(F)cc2)CCN(Cc2cc(F)c(C(=O)NS(=O)(=O)C3CC3)cc2C2CC2)CC1` [Example 516, 5-cyclopropyl-N-(cyclopropylsulfonyl)-2-fluoro-4-((4-(4-fluorophenyl)-4-(methoxymethyl)piperidin-1-yl)methyl)benzamide, trifluoroacetic acid salt], the IC50 was 213 nM.

Molecule `COCC1(c2ccc(F)cc2)CCN(Cc2cc(F)c(C(=O)NS(C)(=O)=O)cc2C2CC2)CC1` [Example 515, 5-cyclopropyl-2-fluoro-4-((4-(4-fluorophenyl)-4-(methoxymethyl)piperidin-1-yl)methyl)-N-(methylsulfonyl)benzamide, trifluoroacetic acid salt] had an IC50 of 384 nM.

The IC50 is the concentration that inhibits the measured activity by half. Low readings indicate greater potency, high ones weaker potency.

Source of the values: US9546164B2 (GENENTECH, INC., priority 2013, dated 2017).
